Consider two compounds from ChEMBL document CHEMBL1144415, “Identification of novel low molecular weight CXCR4 antagonists by structural tuning of cyclic tetrapeptide scaffolds” (J Med Chem, 2005).

Amino acid sequences for entries named in this document (tags omitted).
UniProt P61073, whole entry: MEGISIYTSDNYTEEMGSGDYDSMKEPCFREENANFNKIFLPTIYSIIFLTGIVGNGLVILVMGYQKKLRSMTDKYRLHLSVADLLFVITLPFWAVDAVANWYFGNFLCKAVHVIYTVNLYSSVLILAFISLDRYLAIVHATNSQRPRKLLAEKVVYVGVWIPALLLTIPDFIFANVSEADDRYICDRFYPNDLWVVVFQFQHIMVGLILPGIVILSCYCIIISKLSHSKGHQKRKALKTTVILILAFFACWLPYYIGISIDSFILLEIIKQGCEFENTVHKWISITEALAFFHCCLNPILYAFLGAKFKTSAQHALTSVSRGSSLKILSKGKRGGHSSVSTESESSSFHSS

This test deals with C-X-C chemokine receptor type 4 (Homo sapiens, UniProt P61073). Briefly: Inhibition of [125I]SDF-1 binding to C-X-C chemokine receptor type 4 (CXCR4) expressed in CHO cells. The test is classed as cell-based. In short, it runs like this:
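Stable CXCR4-expressing CHO transfectants harvested with trypsin-EDTA, recovered 4 to 5 h in complete growth medium, washed in cold binding buffer (PBS with 2 mg/mL BSA). Cells at 1 × 10⁷ cells/mL incubated with 0.1 nM [¹²⁵I]-SDF-1 for 2 h on ice with agitation. Bound and free separated by centrifugation through oil cushion, gamma counting. IC50 from at least three independent experiments, mean with SD.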

For orientation: IC50 means the point on the concentration scale where inhibition reaches its midpoint. A low value points to higher potency. As for `N=C(N)NCCC[C@@H]1NC(=O)[C@H](CCCNC(=N)N)NC(=O)[C@@H](Cc2ccc(O)cc2)NC(=O)CNC(=O)[C@H](Cc2ccc3ccccc3c2)NC1=O`, the IC50 turned out to be 8.4 nM.
Take `N=C(N)NCCC[C@@H]1NC(=O)[C@@H](CCCNC(=N)N)NC(=O)[C@@H](Cc2ccc(O)cc2)NC(=O)CNC(=O)[C@H](Cc2ccc3ccccc3c2)NC1=O`: for the setting “cho”, the half-maximal inhibitory concentration (IC50) is 4.3 nM.
